# scFv variants of Ab-14 (light chain) against a SARS-CoV-2 spike peptide

Antigen: PDVDLGDISGINAS, a 14-residue peptide of the SARS-CoV-2 spike HR2 region.

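Phage display of a naive human antibody library on the peptide gave the parent. The variants were designed computationally from a first round of random CDR variants and then made and measured. Group labels follow the data file (Ctrl: baseline library sampled from a position-specific scoring matrix, with some repeated check sequences; Rand: our label for a block that the file lists under HC and that is probably the random mutants of the ten best first-round binders; En: ensemble of fine-tuned language models; GP: Gaussian process model; HC: hill climbing; Gen: genetic algorithm; Gibbs: Gibbs sampling; a sequence that several methods proposed may carry one label only). AlphaSeq pools MATa yeast showing the antibodies with MATalpha yeast showing the peptide. After mating in shaken culture at 30 °C for 16 h, diploids were selected and their barcode pairs sequenced. Read counts were normalised to the haploid input and turned into Kd by a linear fit to BCL2-family pairs of known affinity, for each replicate. Mating was done six times.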

Parent scFv Ab-14: VH joined to VL by the linker GGGGSGGGGSGGGGS. Changes lie in the light chain CDRs alone.
VH: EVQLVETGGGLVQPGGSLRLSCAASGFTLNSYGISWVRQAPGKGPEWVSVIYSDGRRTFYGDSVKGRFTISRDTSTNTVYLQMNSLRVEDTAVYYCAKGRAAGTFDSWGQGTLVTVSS
VL: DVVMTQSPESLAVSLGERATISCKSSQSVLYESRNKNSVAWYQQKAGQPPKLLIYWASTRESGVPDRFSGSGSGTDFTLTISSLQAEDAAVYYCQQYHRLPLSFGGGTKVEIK

The parent's light chain CDRs are KSSQSVLYESRNKNSVA, WASTRES, QQYHRLPLS; each variant's own CDRs replace them letter for letter.
Numbers give log10(Kd / nM), so 0 is 1 nM and 3 is 1 µM. Smaller is tighter.
The mean shown is taken over the replicates in which the pair was detected.
A pair that was not seen in that replicate is written "nd"; this usually means weak binding, but a binder can also be missed.
Empty control strains, which show no peptide, gave a signal in 4% of pairings with all light chain designs; the median was 2.64 and 95% of these signals were weaker than 1.59. No background was subtracted.
The range of this assay differs from that of the first round, and the authors advise against merging the two.
The parent sequence was in this pool as ten entries: three were never detected, three once, and four in most replicates, with averages from 0.34 to 2.37.
The authors averaged sequences with at least three values out of six and counted those with two or fewer as poor binders.

"replicates, log10 nM","log10 Kd (nM), mean",CDR-L1,CDR-L2,CDR-L3,group
nd / 2.58 / nd / nd / 2.03 / 2.89,2.50,KLRQSTMYESRNQNSVA,WASTRES,QQYHRLPLS,GP_HC
0.31 / 0.28 / 0.11 / 0.13 / 0.06 / 0.28,0.20,KVSQSVLYEERNKNSVA,NASTRMS,QQYHRLPLS,GP_Gen
nd / nd / nd / nd / nd / nd,nd,IISMMVGTKGYNKNSVA,NAETRED,QQYHRLPLS,En_HC
nd / 1.38 / 1.29 / 1.04 / 1.70 / 1.85,1.45,SLAMLLNQVYAYGSNIA,NAQELVV,QQYYRLPLT,En_Gibbs
0.79 / 0.87 / 0.78 / 0.67 / 0.67 / 1.01,0.80,QLEVFPLQAGSTYNAIA,DASHSTP,QQYSRLPLV,En_Gibbs
1.48 / 2.32 / nd / 1.47 / 2.53 / 2.60,2.08,KINGVLINNGIDMNAIA,QEHISNL,QQYFHLPLS,En_Gibbs
0.83 / 0.45 / 0.77 / 0.11 / 0.22 / 0.37,0.46,KISMSYRYESQAKNSIA,EMSRREN,QQYHRLPLS,En_HC
2.74 / nd / 2.26 / nd / 2.20 / nd,2.40,KSSQSVLYESRNRNSVA,WASTRES,QQYHRQPLS,Ctrl
1.38 / 0.49 / 0.91 / 0.87 / 1.20 / 0.63,0.91,KYYPSDLYESRNKNSVA,QASTRES,QQYHLLPLS,GP_HC
0.93 / 1.13 / 1.02 / 1.52 / 1.39 / 1.37,1.23,TIGGTLMYGMRNRSNVA,EVSERLN,QQYDRLPLF,En_Gen
0.97 / 2.87 / 1.91 / nd / nd / 1.58,1.83,KMNMAFQQDLMDEYSVA,DHMLRVT,QQYGRLPLS,En_Gibbs
1.63 / 1.24 / 1.56 / 1.36 / 1.68 / 1.54,1.50,HVSMLTLQGMRHTNSVA,QMTTRVN,QQYDRLPLT,En_Gen
0.99 / 1.05 / 0.76 / 0.89 / 1.15 / 1.10,0.99,KVSQSVLYEGRNKNSVA,SASTRES,QQYHRLPLS,Ctrl
1.25 / 2.31 / nd / 1.62 / 0.77 / 2.28,1.65,KLSLITGHLSVSKNNVA,EMATREN,QQYDRLPLS,En_Gen
nd / nd / nd / nd / nd / nd,nd,KSSQSVLTESRNKNSVA,RASTREP,QQYHRLPLS,Ctrl
1.37 / 1.18 / 0.73 / 1.07 / 0.79 / 0.99,1.02,KSGQGVPYESRNKNSVA,GASQRWS,QQYHRLPLS,GP_HC
-0.52 / -0.26 / -0.56 / -0.64 / -0.31 / -0.16,-0.41,KLPQSTLYESRNKNSVA,DASTRES,QQYHRLPLS,GP_Gen
0.28 / -0.01 / 0.08 / -0.28 / 0.07 / 0.19,0.05,KYYPSYLYESRNKNSVA,HASTRES,QQYHLLPLS,GP_HC
nd / nd / nd / nd / -0.63 / nd,-0.63,IVSQLMIWGMHVKNSIA,EAEQRLN,QQYDRLPLF,En_Gen
nd / nd / nd / nd / nd / nd,nd,KCSQQVQYESRNKNSVA,WAHTRES,QQYHCMPLS,Ctrl
0.19 / 0.00 / 0.08 / -0.25 / -0.01 / 0.08,0.02,HIDQVKYDQKTAQNNIA,SGAERVW,QQYSRLPFS,En_Gibbs
-0.03 / -0.40 / -0.45 / -0.50 / -0.35 / -0.26,-0.33,KVSQAVPYESRNLNNVA,DGSTRES,QQYHRLPLS,GP_Gibbs
1.77 / 0.79 / 2.15 / 1.14 / 1.40 / 2.31,1.59,KISFQYRYEQLSKNSIA,EAQTRLK,QQYHRLPIS,En_HC
nd / nd / nd / nd / nd / nd,nd,KSLQSVLYESRNKNSVA,HASTRED,QQWHRLPLS,Rand
0.05 / 0.06 / -0.18 / -0.15 / -0.08 / -0.05,-0.06,KLSQSVLYESRAKNSVA,NASTRLS,QQYHRLPLS,GP_Gen
-0.04 / -0.28 / -0.42 / -0.56 / -0.04 / -0.12,-0.24,TLGYQPTEMRDNKHAVA,DDEQRTR,QQYMRLPLS,En_Gibbs
-0.05 / 0.18 / -0.09 / -0.17 / 0.01 / 0.02,-0.02,KSSMSGLYESRNKNSVA,EASTRES,QQYHRLPLS,GP_HC
0.64 / 1.25 / 0.83 / 0.37 / 1.30 / 1.67,1.01,KVSPSVLGWMRNKNSVA,NASTRRS,QQYHRLPLS,GP_Gibbs
0.20 / 0.05 / 0.07 / 0.14 / -0.06 / 0.39,0.13,KVPQSVLYESRNKNSVA,HASTRED,QSYHRLPLS,GP_HC
1.71 / 1.44 / 2.19 / 1.56 / 0.73 / nd,1.53,SFERGLAGSSLVQNNVA,EGKTLWE,QQYMRLPLS,En_Gibbs
-0.16 / -0.02 / -0.45 / 0.19 / -0.41 / 0.10,-0.13,KLPQSVLYESRNKNSVA,HASTRED,KQYHRLPLS,GP_HC
nd / nd / 1.06 / nd / 1.77 / 2.09,1.64,KLLQTVANGRYNRNNVA,HMTMRED,QQYFRLPLS,En_HC
0.42 / -0.19 / -0.23 / -0.02 / -0.49 / -0.14,-0.11,KLQQSMLYESRNKNSVA,NASYRES,QQYHRLPLS,GP_Gen
1.38 / 1.27 / 1.11 / 0.93 / 1.54 / 1.45,1.28,HISQMVMYGSCAKNNVA,QVSTREE,QQYHRLPLS,En_HC
nd / nd / nd / nd / nd / nd,nd,MVSMNIYGEYRLRDNVA,HASMRED,QCYDRLPLS,En_Gen
nd / 1.61 / 1.62 / 1.78 / 1.65 / 2.61,1.86,KLGMTLNQLMHKKNNVA,DLVNRET,QQYHRLPLS,En_Gen
1.20 / 0.96 / 0.15 / 0.21 / 0.63 / 0.85,0.67,RMEWHNSGLLEAKNSVA,GVEHRAN,QQYDRLPLE,En_Gibbs
-0.38 / -0.51 / -0.55 / -0.77 / -0.60 / -0.33,-0.52,KLQAQQEYWSRNKNSVA,QASTRES,QQYHRLPLS,GP_Gibbs

From the AlphaSeq antibody data of Li et al. 2023 (doi:10.1038/s41467-023-39022-2), copy in the FLAb collection.